Format in all cases: biochemical
One assay concerns the target KAT7 (Homo sapiens (Human), UniProt O95251). Briefly: KAT assay (SAMDI mass spectrometry), KAT7.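 Further: Baculovirus-expressed enzyme acetylating a histone peptide at room temperature, percent conversion from product and substrate peak areas, Ki from a Morrison tight-binding competitive fit.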 To be noted: read-out: KAT7 Ki at 1 μM AcCoA.
In another assay the target is KAT6A (Homo sapiens (Human), UniProt Q92794). The assay can be described thus: KAT assay (SAMDI mass spectrometry), KAT6A.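 Further: Baculovirus-expressed KAT6A acetylating histone H3 (1-21) peptide (2 µM), 30-60 min at room temperature, % product conversion fitted to Morrison equation for tight-binding competitive inhibitors.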 To be noted: read-out: KAT6a Ki at 1 μM AcCoA.
For the next assay, the target named is KAT6B (Homo sapiens (Human), UniProt Q8WYB5). The assay can be described thus: KAT assay (SAMDI mass spectrometry), KAT6B. To be noted: read-out: KAT6b Ki at 1 μM AcCoA.
The next assay deals with KAT5 (Homo sapiens (Human), UniProt Q92993). Briefly: KAT assay (SAMDI mass spectrometry), KAT5.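 Further: Baculovirus-expressed KAT5 acetylating a histone H4 peptide at room temperature, read as percent conversion to product, Ki from a Morrison tight-binding competitive fit.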 To be noted: read-out: KAT5 Ki at 1 μM AcCoA.
The next assay deals with KAT8 (Homo sapiens (Human), UniProt Q9H7Z6). The assay can be described thus: KAT assay (SAMDI mass spectrometry), KAT8. To be noted: read-out: KAT8 Ki at 1 μM AcCoA.

Chains of the proteins cited; added tags and fusions are not shown.
UniProt O95251, whole entry: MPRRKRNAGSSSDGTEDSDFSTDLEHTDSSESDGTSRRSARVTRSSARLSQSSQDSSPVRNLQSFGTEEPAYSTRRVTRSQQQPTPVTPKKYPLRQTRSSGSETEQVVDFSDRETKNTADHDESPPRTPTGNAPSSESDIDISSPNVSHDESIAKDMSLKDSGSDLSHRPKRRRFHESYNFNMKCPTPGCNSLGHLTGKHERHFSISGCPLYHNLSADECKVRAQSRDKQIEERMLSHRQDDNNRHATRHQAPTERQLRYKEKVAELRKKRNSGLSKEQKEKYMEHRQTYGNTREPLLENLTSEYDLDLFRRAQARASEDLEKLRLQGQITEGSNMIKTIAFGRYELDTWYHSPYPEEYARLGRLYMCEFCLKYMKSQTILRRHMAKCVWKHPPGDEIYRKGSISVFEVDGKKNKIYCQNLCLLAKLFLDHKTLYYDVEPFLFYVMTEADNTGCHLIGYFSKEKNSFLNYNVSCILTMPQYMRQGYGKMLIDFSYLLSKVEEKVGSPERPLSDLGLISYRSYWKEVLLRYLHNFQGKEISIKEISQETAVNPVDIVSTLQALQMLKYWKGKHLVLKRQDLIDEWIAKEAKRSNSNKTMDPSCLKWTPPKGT
UniProt Q92794, whole entry: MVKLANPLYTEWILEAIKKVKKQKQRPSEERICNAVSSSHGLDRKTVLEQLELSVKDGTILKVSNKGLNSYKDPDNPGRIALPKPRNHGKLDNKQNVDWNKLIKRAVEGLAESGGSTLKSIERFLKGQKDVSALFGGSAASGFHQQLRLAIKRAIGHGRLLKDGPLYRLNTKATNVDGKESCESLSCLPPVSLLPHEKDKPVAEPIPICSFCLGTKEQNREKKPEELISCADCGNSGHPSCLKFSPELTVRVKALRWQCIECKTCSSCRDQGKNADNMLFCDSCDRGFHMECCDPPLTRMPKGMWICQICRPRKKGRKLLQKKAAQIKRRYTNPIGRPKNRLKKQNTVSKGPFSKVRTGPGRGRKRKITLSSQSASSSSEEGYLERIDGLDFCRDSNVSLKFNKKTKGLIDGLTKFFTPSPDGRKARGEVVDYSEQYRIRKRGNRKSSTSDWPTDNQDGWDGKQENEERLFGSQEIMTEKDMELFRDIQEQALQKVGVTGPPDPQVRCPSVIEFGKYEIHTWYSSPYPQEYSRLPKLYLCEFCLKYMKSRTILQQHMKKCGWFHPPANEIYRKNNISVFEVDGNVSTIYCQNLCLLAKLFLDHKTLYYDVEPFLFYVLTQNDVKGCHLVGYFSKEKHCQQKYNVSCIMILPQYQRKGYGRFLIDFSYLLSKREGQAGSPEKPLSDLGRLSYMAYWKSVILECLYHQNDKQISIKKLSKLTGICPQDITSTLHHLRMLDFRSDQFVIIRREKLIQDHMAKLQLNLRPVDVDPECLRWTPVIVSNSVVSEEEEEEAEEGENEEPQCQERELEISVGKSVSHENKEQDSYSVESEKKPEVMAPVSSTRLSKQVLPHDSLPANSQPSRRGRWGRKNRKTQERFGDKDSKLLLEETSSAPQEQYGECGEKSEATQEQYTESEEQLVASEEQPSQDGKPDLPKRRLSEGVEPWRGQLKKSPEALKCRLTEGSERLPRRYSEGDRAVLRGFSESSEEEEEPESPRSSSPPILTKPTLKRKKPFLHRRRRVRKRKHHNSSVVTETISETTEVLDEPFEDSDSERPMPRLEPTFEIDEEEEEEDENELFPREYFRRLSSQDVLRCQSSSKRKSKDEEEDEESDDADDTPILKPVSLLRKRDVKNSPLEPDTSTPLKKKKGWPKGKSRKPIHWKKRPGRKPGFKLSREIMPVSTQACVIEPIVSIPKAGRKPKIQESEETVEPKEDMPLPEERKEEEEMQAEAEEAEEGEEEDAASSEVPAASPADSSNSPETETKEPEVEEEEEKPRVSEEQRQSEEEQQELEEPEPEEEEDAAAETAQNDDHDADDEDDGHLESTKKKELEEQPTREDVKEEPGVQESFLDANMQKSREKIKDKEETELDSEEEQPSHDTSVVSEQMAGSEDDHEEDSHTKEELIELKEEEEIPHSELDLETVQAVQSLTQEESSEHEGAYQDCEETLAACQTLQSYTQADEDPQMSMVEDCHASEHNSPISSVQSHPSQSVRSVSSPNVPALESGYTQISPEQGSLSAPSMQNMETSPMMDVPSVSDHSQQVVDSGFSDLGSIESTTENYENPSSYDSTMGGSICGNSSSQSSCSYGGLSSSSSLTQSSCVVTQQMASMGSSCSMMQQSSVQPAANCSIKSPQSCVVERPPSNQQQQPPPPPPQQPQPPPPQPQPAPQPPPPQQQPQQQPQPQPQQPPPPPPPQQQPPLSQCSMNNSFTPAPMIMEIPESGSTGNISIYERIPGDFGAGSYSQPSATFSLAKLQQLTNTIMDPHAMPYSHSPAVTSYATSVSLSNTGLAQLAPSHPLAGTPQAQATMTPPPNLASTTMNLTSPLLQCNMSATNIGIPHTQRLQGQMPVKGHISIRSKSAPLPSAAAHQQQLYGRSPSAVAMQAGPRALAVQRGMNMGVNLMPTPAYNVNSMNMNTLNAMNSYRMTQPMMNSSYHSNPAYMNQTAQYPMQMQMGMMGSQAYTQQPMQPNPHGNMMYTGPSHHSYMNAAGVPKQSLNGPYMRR
UniProt Q8WYB5, whole entry: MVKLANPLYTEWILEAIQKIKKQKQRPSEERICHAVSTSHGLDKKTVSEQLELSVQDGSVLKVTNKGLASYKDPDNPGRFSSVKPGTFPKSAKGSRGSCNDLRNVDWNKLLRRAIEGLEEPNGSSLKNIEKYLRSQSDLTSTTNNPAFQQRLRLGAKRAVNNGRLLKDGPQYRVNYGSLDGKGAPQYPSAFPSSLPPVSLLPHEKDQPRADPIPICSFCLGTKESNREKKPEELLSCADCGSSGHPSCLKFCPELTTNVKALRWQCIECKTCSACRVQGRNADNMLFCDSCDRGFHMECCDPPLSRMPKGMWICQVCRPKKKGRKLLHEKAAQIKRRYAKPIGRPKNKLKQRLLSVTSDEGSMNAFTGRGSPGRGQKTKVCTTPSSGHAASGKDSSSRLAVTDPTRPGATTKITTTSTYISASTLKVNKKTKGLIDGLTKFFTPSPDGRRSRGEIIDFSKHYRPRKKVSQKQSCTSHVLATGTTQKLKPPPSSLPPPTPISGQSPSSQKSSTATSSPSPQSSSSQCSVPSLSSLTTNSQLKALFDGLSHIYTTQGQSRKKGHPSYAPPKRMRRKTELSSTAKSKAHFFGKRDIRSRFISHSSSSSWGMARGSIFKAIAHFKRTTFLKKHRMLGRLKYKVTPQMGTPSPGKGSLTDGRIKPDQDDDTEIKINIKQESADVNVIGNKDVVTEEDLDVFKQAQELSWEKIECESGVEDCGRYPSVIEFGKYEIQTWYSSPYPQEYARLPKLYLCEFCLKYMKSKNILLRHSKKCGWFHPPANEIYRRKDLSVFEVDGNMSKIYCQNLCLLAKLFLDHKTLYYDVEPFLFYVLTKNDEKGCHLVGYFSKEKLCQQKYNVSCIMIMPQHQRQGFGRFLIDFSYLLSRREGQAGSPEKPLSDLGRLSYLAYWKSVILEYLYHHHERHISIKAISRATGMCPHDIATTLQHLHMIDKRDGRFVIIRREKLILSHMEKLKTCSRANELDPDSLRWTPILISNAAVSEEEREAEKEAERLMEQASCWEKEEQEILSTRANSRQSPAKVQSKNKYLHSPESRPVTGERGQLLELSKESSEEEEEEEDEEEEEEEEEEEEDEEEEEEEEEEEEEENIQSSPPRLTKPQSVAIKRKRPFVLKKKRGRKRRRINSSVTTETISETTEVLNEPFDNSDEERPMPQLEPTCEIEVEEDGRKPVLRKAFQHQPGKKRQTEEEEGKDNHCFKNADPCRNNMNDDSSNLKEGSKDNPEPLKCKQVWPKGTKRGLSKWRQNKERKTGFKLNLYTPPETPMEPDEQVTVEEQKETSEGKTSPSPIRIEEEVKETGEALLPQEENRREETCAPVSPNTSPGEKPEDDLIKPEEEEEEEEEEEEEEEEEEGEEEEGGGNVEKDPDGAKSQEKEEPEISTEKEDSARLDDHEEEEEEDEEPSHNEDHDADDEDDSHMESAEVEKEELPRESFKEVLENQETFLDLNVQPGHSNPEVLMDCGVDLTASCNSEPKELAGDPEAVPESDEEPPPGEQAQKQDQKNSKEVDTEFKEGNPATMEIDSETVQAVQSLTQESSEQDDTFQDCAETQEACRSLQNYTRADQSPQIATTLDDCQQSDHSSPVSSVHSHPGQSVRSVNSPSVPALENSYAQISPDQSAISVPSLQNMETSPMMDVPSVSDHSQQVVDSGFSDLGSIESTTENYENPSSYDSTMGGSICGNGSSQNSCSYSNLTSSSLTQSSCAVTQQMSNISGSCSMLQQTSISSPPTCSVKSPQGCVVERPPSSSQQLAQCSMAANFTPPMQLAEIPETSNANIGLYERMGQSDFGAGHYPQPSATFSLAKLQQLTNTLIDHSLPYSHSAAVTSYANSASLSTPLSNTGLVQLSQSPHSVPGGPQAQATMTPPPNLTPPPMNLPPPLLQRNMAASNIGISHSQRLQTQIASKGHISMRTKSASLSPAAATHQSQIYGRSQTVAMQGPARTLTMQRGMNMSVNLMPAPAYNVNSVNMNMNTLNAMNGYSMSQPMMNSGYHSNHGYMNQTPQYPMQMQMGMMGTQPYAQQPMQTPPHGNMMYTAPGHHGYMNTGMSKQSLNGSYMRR
UniProt Q92993, whole entry: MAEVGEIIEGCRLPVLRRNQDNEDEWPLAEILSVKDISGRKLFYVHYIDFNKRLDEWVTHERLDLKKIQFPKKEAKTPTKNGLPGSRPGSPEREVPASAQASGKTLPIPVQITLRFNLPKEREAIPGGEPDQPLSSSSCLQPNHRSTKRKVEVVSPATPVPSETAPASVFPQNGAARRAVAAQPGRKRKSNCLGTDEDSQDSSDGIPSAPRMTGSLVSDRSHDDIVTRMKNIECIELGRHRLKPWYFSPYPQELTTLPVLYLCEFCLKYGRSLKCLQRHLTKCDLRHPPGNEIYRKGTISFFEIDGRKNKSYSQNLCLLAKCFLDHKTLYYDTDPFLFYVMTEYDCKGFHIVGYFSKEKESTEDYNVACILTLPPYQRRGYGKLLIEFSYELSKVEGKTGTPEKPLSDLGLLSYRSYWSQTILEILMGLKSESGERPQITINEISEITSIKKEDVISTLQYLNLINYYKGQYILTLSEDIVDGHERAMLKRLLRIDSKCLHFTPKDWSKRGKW
UniProt Q9H7Z6, whole entry: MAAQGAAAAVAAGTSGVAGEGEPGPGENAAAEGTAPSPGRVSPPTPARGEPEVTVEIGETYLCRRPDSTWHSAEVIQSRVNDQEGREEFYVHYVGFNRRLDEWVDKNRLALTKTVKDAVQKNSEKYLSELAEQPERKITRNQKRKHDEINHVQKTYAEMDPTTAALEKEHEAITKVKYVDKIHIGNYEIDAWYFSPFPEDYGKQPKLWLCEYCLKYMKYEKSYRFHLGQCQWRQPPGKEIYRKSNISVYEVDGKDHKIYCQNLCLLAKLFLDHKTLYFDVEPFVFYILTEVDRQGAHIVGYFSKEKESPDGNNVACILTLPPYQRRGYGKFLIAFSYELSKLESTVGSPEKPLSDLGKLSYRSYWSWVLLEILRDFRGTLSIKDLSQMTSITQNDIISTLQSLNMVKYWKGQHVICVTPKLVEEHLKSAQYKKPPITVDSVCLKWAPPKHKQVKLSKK

SMILES strings stand for the structures. pKi: −log10 of the molar value.

With `COc1cccc(OC)c1S(=O)(=O)Nc1noc2cc(C(O)c3cocn3)cc(OC)c12` (single isomer, unassigned), at KAT7, the pKi was 5.12.

For the compound `COc1cc(Cn2cccn2)cc2onc(NS(=O)(=O)c3c(C)cccc3F)c12`, the figures for the pKi on KAT6A and at KAT7 were 7.75 and 5.98, respectively.

`COc1cccc(OC)c1S(=O)(=O)Nc1noc2cc(Cn3ccc(C)n3)cc(OC)c12`: the pKi on KAT6A is 7.33; on KAT6B it was 7.30; on KAT5, 4.89; on KAT7 it was 6.15; at KAT8, 4.44.

Broadly, the pKi is −log10 of the Ki, conventionally taken in molar units.

The record behind these values is patent US11492346B2, “Benzisoxazole sulfonamide derivatives” (Pfizer Inc., priority 2019, dated 2022).
